## CycPeptMPDB entries from one study

Collected by the curators of CycPeptMPDB (Li et al. 2023) from Townsend et al. 2020, doi:10.26434/chemrxiv.13335941.v1.

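The data file gives no further conditions (lipid, pH, time, direction or concentration), and values from different papers need not be comparable. The list need not hold all peptides of the study. Entries at the database's floor value (log10 P of -10) are not listed.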

PAMPA is the parallel artificial membrane permeability assay, which has no cells and reads passive diffusion. Permeability is given as log10 of P in cm/s; higher (less negative) is more permeable.

compound	PAMPA (log10 cm/s)
CC(C)C[C@@H]1NC(=O)CN(Cc2ccccc2)C(=O)C[C@H](Cc2ccccc2)NC(=O)[C@H]2CCCN2C(=O)[C@H](Cc2ccccc2)NC(=O)[C@@H](CC(C)C)N(C)C(=O)[C@H]2CCCN2C1=O	-5.38
CC(C)C[C@@H]1C(=O)N(C)[C@H](CC(C)C)C(=O)N2CCC[C@H]2C(=O)N(C)[C@H](CC(C)C)C(=O)N[C@@H](Cc2ccccc2)C(=O)N2CCC[C@@H]2C(=O)N[C@@H](Cc2ccccc2)CC(=O)N1C	-5.17
CC(C)C[C@@H]1NC(=O)[C@@H](CC(C)C)NC(=O)[C@H](C)N(C)C(=O)[C@H](Cc2ccccc2)NC(=O)CN(Cc2ccccc2)C(=O)[C@@H]2CCCN2C1=O	-5.35
CC(C)C[C@@H]1NC(=O)[C@H](C)NC(=O)[C@H]2CCCN2C(=O)[C@H](Cc2ccccc2)NC(=O)[C@H](CC(C)C)N(C)C(=O)[C@@H]2CCCN2C(=O)C[C@H](Cc2ccccc2)NC1=O	-5.82
CC(C)C[C@@H]1NC(=O)[C@@H](C)NC(=O)[C@H](Cc2ccccc2)NC(=O)[C@H](CC(C)C)NC(=O)[C@@H]2CCCN2C(=O)[C@H](CC(C)C)NC1=O	-7.02
CCCN1CC(=O)N(C)[C@H](CC(C)C)C(=O)N(Cc2ccccc2)CC(=O)N2CCC[C@H]2C(=O)N(C)[C@H](CC(C)C)C(=O)N[C@@H](Cc2ccccc2)C1=O	-5.02
CCCN1CC(=O)N(C)[C@@H](CC(C)C)C(=O)N(C)[C@@H](CC(C)C)C(=O)N2CCC[C@@H]2C(=O)N(C)[C@@H](CC(C)C)C(=O)N[C@@H](Cc2ccccc2)C(=O)N2CCC[C@@H]2C1=O	-4.87
CCCN1CC(=O)N[C@@H](CC(C)C)C(=O)N(Cc2ccccc2)CC(=O)N2CCC[C@H]2C(=O)N(Cc2ccccc2)CC(=O)N[C@@H](Cc2ccccc2)C(=O)N2CCC[C@@H]2C1=O	-5.62
CC(C)C[C@@H]1C(=O)N(Cc2ccccc2)CC(=O)N2CCC[C@H]2C(=O)N(C)[C@@H](CC(C)C)C(=O)N[C@@H](Cc2ccccc2)C(=O)N[C@@H](C)C(=O)N1C	-5.51
CCCN1CC(=O)N[C@@H](CC(C)C)C(=O)N[C@H](CC(C)C)C(=O)N2CCC[C@@H]2C(=O)N(C)[C@@H](CC(C)C)C(=O)N[C@@H](Cc2ccccc2)C(=O)N2CCC[C@@H]2C1=O	-5.34
CC(C)C[C@@H]1NC(=O)[C@H](C)N(C)C(=O)[C@@H]2CCCN2C(=O)[C@H](Cc2ccccc2)NC(=O)[C@@H](CC(C)C)N(C)C(=O)[C@@H]2CCCN2C(=O)C[C@H](Cc2ccccc2)NC1=O	-5.87
CC(C)C[C@H]1NC(=O)[C@@H](C)N(C)C(=O)[C@@H]2CCCN2C(=O)[C@H](Cc2ccccc2)NC(=O)[C@H](CC(C)C)N(C)C(=O)[C@@H]2CCCN2C(=O)[C@H](CC(C)C)N(C)C1=O	-5.54
CC(C)C[C@@H]1C(=O)N[C@H](CC(C)C)C(=O)N2CCC[C@@H]2C(=O)N(C)[C@H](CC(C)C)C(=O)N[C@@H](Cc2ccccc2)C(=O)N2CCC[C@H]2C(=O)N[C@@H](C)C(=O)N1C	-5.69
CC(C)C[C@@H]1C(=O)N[C@H](CC(C)C)C(=O)N2CCC[C@H]2C(=O)N[C@H](CC(C)C)C(=O)N[C@@H](Cc2ccccc2)C(=O)N2CCC[C@@H]2C(=O)N(C)[C@@H](C)C(=O)N1C	-6.54
CC(C)C[C@@H]1NC(=O)C[C@H](Cc2ccccc2)NC(=O)[C@H]2CCCN2C(=O)[C@H](Cc2ccccc2)NC(=O)CN(Cc2ccccc2)C(=O)[C@H]2CCCN2C(=O)[C@H](CC(C)C)NC1=O	-5.58
CC(C)C[C@@H]1NC(=O)[C@H](C)NC(=O)[C@@H]2CCCN2C(=O)[C@H](Cc2ccccc2)NC(=O)[C@H](CC(C)C)N(C)C(=O)[C@@H]2CCCN2C(=O)C[C@H](Cc2ccccc2)NC1=O	-5.86
CC(C)C[C@H]1NC(=O)C[C@H](Cc2ccccc2)NC(=O)[C@@H]2CCCN2C(=O)[C@H](Cc2ccccc2)NC(=O)[C@@H](CC(C)C)NC(=O)[C@H]2CCCN2C(=O)C[C@H](Cc2ccccc2)NC1=O	-5.71
CC(C)C[C@@H]1NC(=O)[C@@H](CC(C)C)N(C)C(=O)[C@@H](C)NC(=O)[C@H]2CCCN2C(=O)[C@H](Cc2ccccc2)NC(=O)[C@H](CC(C)C)N(C)C(=O)[C@H]2CCCN2C1=O	-4.88
CC(C)C[C@@H]1NC(=O)[C@H](C)N(C)C(=O)[C@@H]2CCCN2C(=O)[C@H](Cc2ccccc2)NC(=O)[C@@H](CC(C)C)N(C)C(=O)[C@@H]2CCCN2C(=O)[C@@H](CC(C)C)N(C)C1=O	-5.32
CC(C)C[C@@H]1C(=O)N(Cc2ccccc2)CC(=O)N2CCC[C@H]2C(=O)N(C)[C@H](CC(C)C)C(=O)N[C@@H](Cc2ccccc2)C(=O)N[C@@H](Cc2ccccc2)CC(=O)N1C	-5.49
CC(C)C[C@@H]1C(=O)N2CCC[C@H]2C(=O)N(C)[C@H](CC(C)C)C(=O)N[C@@H](Cc2ccccc2)C(=O)N2CCC[C@H]2C(=O)N[C@H](C)C(=O)N[C@H](CC(C)C)C(=O)N1C	-6.86
CC(C)C[C@@H]1NC(=O)[C@H]2CCCN2C(=O)[C@H](CC(C)C)N(C)C(=O)[C@@H](CC(C)C)N(C)C(=O)[C@H](C)NC(=O)[C@H](Cc2ccccc2)NC1=O	-5.18
CC(C)C[C@@H]1C(=O)N[C@@H](Cc2ccccc2)C(=O)N(C)[C@H](C)C(=O)N[C@H](CC(C)C)C(=O)N(Cc2ccccc2)CC(=O)N2CCC[C@@H]2C(=O)N1C	-5.09
CC(C)C[C@@H]1C(=O)N(C)[C@@H](CC(C)C)C(=O)N2CCC[C@H]2C(=O)N(C)[C@H](CC(C)C)C(=O)N[C@@H](Cc2ccccc2)C(=O)N2CCC[C@H]2C(=O)N[C@@H](C)C(=O)N1C	-5.62

2 of these entries, quoted again:

compound	PAMPA (log10 cm/s)
CC(C)C[C@@H]1C(=O)N(Cc2ccccc2)CC(=O)N2CCC[C@H]2C(=O)N(C)[C@@H](CC(C)C)C(=O)N[C@@H](Cc2ccccc2)C(=O)N[C@@H](C)C(=O)N1C	-5.51
CC(C)C[C@@H]1NC(=O)[C@H](C)N(C)C(=O)[C@@H]2CCCN2C(=O)[C@H](Cc2ccccc2)NC(=O)[C@@H](CC(C)C)N(C)C(=O)[C@@H]2CCCN2C(=O)C[C@H](Cc2ccccc2)NC1=O	-5.87